Consider 1 molecule from publication PMC3201017, “Modification of the loops in the ligand-binding site turns avidin into a steroid-binding protein” (BMC Biotechnology, 2011).

Amino acid sequences for entries named in this document (tags omitted). Residues count along the entry.
UniProt P02701, 25-152 D37R/L38M/G39N/S40H: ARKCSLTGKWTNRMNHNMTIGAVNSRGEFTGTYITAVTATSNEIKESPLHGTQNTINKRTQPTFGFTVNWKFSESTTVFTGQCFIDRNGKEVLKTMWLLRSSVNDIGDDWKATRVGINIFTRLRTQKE

For this assay, the target named is T1, sbAvd-1 (steroid-binding avidin mutant) (Gallus gallus, UniProt P02701, D37R/L38M/G39N/S40H).
T1 construct: gene AVD; full avidin core, homotetramer, produced in E. coli
The experiment in a line: SPR competition on testosterone-BSA chip, […] inhibitor.

With `C[C@]12CCC(=O)C=C1CC[C@@H]1[C@@H]2CC[C@]2(C)C(=O)CC[C@@H]12` [androstenedione], the “SPR competition on testosterone-BSA chip, 50 μM inhibitor” value was “The binding of the sbAvd-1 protein was totally inhibited by dehydroepiandrosterone, androstenedione, and biotin”.
